Source: BindingDB's records for doi:10.1021/jm701457j (University of Maryland, 2008)

By UniProt entry, the sequences of proteins in these tests, tags left out. Where a name states a change or a piece, a line headed by the entry shows the natural chain unless it says otherwise.
UniProt P41145: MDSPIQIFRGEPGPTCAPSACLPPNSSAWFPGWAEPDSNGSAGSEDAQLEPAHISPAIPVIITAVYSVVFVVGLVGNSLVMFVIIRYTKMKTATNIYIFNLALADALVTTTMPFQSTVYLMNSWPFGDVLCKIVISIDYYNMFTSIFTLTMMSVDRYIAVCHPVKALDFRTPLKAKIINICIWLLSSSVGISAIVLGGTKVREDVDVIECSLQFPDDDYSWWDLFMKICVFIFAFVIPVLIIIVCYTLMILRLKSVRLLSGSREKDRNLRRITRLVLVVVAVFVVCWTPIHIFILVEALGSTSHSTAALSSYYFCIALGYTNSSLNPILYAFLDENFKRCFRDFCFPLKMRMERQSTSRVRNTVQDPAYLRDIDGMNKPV

Molecular target: Kappa-type opioid receptor (Homo sapiens, UniProt P41145)

For `COc1ccc2c3c1OC1C(O)C=CC4C(C2)N(C)CCC341` (stereo unspecified) [NSC_223652], the Ki was greater than 10 µM.
